In BindingDB's records for doi:10.1016/S0968-0896(02)00561-8 (Purdue University, 2003) one finds Ki data, which are given here for 1 compound.

The chains behind the UniProt entries cited, without tags or fusion partners.
UniProt P61169, whole entry: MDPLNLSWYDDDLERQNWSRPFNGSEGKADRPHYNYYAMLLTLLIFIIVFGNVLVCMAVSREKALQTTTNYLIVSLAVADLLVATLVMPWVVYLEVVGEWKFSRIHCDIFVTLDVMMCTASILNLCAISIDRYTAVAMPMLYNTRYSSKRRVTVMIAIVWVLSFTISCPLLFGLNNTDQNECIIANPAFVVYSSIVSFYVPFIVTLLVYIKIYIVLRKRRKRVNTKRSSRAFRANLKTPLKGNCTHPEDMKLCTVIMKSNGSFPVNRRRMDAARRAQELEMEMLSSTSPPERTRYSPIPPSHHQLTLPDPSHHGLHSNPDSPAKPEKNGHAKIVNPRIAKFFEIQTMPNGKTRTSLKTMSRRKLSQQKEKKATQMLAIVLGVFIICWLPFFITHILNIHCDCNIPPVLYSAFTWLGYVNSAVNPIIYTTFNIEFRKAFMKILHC

What is called Ki is the equilibrium dissociation constant of an inhibitor or competing ligand from its target. Lower therefore signals higher affinity.

The test addresses D(2) dopamine receptor (Rattus norvegicus, UniProt P61169).

Structures are written as SMILES. “And” between values parts separate entries of the source, which are not always exact repeats. Identical values can stand only once.

As for `Oc1ccc2c(c1O)Cc1cccc3c1[C@H]2CNC3` [Dinapsoline, (R)(+)], the inhibition constant Ki was 53 nM and 25 nM.
